In assay [1] the target is T1, GIP receptor (RIN), P43219.
T1 chain: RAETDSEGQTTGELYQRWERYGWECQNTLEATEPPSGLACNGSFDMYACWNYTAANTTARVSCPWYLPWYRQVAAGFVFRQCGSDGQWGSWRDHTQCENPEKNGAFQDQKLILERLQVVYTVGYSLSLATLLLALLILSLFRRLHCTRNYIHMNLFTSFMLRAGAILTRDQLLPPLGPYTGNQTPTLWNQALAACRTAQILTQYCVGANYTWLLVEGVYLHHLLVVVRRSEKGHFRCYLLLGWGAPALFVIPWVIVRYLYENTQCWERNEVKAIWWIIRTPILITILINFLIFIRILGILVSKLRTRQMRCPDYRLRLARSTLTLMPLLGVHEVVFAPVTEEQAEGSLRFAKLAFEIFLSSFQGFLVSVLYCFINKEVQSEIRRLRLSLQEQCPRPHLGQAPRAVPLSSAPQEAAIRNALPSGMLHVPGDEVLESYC
Nature of the assay: GIP RBA (RIN).

Assay [2] has as its target T2, GIP receptor (Homo sapiens (Human)), P48546.
T2 chain: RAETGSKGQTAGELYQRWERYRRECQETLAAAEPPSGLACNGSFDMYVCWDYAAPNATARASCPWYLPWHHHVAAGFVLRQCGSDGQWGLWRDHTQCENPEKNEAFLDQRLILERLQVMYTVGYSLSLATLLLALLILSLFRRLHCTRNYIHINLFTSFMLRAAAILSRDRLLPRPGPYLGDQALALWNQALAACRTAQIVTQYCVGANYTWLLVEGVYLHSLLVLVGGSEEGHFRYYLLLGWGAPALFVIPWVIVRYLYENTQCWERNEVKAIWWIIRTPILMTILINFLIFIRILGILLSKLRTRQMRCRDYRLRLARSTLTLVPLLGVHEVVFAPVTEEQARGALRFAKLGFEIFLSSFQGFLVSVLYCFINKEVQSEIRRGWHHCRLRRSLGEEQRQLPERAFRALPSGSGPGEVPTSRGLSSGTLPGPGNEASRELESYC
Briefly: cell-based or functional assay.

One may read the IC50 as the concentration at which inhibition is half-maximal. In assay [1], GYAEGTFISDYSIALDKIRQQEFVNWLLAQHPSSGAPPPS (modifications not checked) [0601GIP4292] registered a concentration for half-maximal inhibition (IC50) of 0.17 nM. The Cyclase in assay [2] was found to be 3.46. Take GYAEGTFISDYSIAMDKIRQQDFVNWLLAQKPSSGAPPPS (modifications not checked) [0601GIP4293]: the IC50 in assay [1] came out at 0.12 nM.

These data come from US20080312157A1.
